The text below walks through data of patent publication US10472352B2, “Rac inhibitors” (Geneyus LLC, priority 2017, dated 2019).

This assay relates to androgen receptor response gene (PSA) in LNCaP prostate cancer cells. Briefly: Inhibition of Androgen Receptor Target Gene Transcription (PSA qPCR). The class given is cell-based. The conditions noted are these: 10 nM DHT, 4 hours, 10 uM bicalutamide, 10 uM enzalutamide, 12.5 or 25 uM 0032661. The method, then: After 4 hours, RNA was harvested and converted into cDNA. qPCR analysis for PSA was performed on all samples and normalized to expression of GAPDH. The data, shown in FIG. 11, is expressed as fold change relative to PSA expression of the cFBS sample.

Structures are written as SMILES.

Turning to `CNC(=O)c1ccc(N2C(=S)N(c3ccc(C#N)c(C(F)(F)F)c3)C(=O)C2(C)C)cc1F` [enzalutamide, reference compound], the “androgen receptor target gene transcription (PSA)” value is “inhibit the androgen receptor target gene transcription”.
